This is an account of results in ChEMBL document CHEMBL1127305, “kappa Opioid receptor selective affinity labels: electrophilic benzeneacetamides as kappa-selective opioid antagonists” (J Med Chem, 1994).

For test [1], the system named is Mus musculus. Put plainly: In vivo the compound was tested for antinociceptive potency by Mouse abdominal stretch assay. The following applies: Abdomen.
The species entered for test [2] is Mus musculus. The test can be described thus: Tested for antinociceptive potency by Mouse tail flick assay.

The term ED50 denotes the dose at which the effect has come halfway, by size or by number of responders. A higher ED50 goes with a need for a large dose. Consider `COC(=O)/C=C/C(=O)Nc1cccc([C@@H](CN2CCCC2)N(C)C(=O)Cc2ccc(Cl)c(Cl)c2)c1`, for which the 50% effective dose (ED50) with Mus musculus [1] is 1.41 µmol/kg; in the test listed under Mus musculus [2], 6.1 µmol/kg.
